Measured values taken from US12643907B2 (priority 2020, dated 2026).

The chains behind the UniProt entries cited, without tags or fusion partners.
UniProt P35372, whole entry: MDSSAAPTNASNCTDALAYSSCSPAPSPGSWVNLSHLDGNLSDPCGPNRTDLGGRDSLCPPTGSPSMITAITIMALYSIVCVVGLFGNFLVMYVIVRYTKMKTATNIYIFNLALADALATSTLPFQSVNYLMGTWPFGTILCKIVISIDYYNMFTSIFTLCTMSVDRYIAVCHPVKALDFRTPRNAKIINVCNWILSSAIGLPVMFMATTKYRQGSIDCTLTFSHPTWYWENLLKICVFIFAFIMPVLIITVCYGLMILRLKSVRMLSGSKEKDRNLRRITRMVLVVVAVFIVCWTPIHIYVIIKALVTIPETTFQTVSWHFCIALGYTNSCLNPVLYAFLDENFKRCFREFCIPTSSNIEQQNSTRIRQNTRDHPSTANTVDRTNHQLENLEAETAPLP

Experiments:
MOR [1] = biological target: T1, MOR (Homo sapiens, UniProt P35372); assay: Irreversible binding: 3H-Diprenorphine binding after compound washed away 5 times
C57BL/6J mice = assay: CLAMS: fentanyl-induced respiratory depression and ambulation; details: s.c.
MOR [2] = biological target: T1, MOR; assay: Arrestin recruitment functional assay; details: FIG. 2C
MOR [3] = biological target: T1, MOR
MOR [4] = biological target: T1, MOR; assay: G protein recruitment functional assay; details: FIG. 2B
[5] = 30 mg/kg, 2 hour pretreatment, listed as TJ-3-345

SMILES: CO[C@]12CC[C@@]3(C[C@@H]1C(C)(C)O)[C@H]1Cc4ccc(O)c5c4[C@@]3(CCN1CC1CC1)[C@H]2O5
- irreversible MOR attachment / inhibition (in words) (MOR [1]; in vitro, blocks binding of other ligands after washing 5 times): not

SMILES: C=CCN1CCC23c4c5ccc(O)c4OC2C(N(C)CCS(=O)(=O)F)CCC3(O)C1C5 (racemic) [TJ-345]
- duration of nearly full blockade of radioligand 3H-Diprenorphine binding (MOR [1]; after compound was washed away 5 times (FIG. 3)): > 48 h
- fentanyl-induced hyperlocomotion (C57BL/6J mice; 30 mg/kg, 2 hour pretreatment): significantly reverses
- fentanyl-induced hyperlocomotion (C57BL/6J mice; [5]): significantly reversed
- fentanyl-induced respiratory depression (C57BL/6J mice; [5]): significantly reversed
- arrestin recruitment activity (MOR [2]): without any detectable
- Ki (MOR [3]): 15 nM
- partial agonism, G protein recruitment (MOR [4]): < 10 % Emax

SMILES: C=CCN1CC[C@]23c4c5ccc(O)c4O[C@H]2[C@H](N(C)CCS(=O)(=O)F)CC[C@@]3(O)C1C5 [TJ-171]
- fentanyl-induced respiratory depression and ambulation (C57BL/6J mice; 30 mg/kg, pretreatment of 2 h): ameliorated
- fentanyl-induced respiratory depression and ambulation (C57BL/6J mice; 30 mg/kg, pretreatment of 24 h): ameliorated
- reversal of fentanyl-induced hyperlocomotion (C57BL/6J mice; administered at 21 min after fentanyl, 30 or 45 mg/kg): dose-dependently reversed
